Test system: dengue virus type 2
Test: Antiviral activity against DENV2 infected in hamster BHK-21 cells assessed as inhibition of plaque formation by measuring reduction in PFU per well incubated for 6 days by crystal violet staining based assay
Format: functional
Details: time 6 day

Work on `NC(=O)c1ncn([C@@H]2O[C@H](CO)[C@@H](O)[C@H]2O)n1` [RIBAVIRIN] yielded an EC of 5 µg/mL.

Source: ChEMBL document CHEMBL5137096, “Antiviral Profiling of C-18- or C-19-Functionalized Semisynthetic Abietane Diterpenoids” (J Nat Prod, 2022)
